Laboratory results as given in ChEMBL document CHEMBL1949541, “Discovery of 7-arylsulfonyl-1,2,3,4, 4a,9a-hexahydro-benzo[4,5]furo[2,3-c]pyridines: identification of a potent and selective 5-HT₆ receptor antagonist showing activity in rat social recognition test” (Bioorg Med Chem Lett, 2012).

What was measured:
[1] = Plasma clearance in rat at 1 mg/kg, iv; type: ADME, organism-based; parameters: dose 1 mg/kg, route intravenous
[2] = Efflux ratio of apparent permeability across MDCK2-MDR1 cells; type: ADME, cell-based, Canis lupus familiaris; details: dog, MDCK-MDR1

clearance [1]: 41 mL/min/kg
efflux ratio [2]: 3
SMILES: COc1cc(OC(C)C)cc(S(=O)(=O)c2ccc3c(c2)O[C@H]2CNCC[C@@H]32)c1.Cl (single isomer, unassigned; enantiomer 1)
